Target: Lactase/phlorizin hydrolase (Homo sapiens, UniProt P09848)
Test: Inhibition of lactase by HPLC

Protein sequences, listed by entry. Tags and fused reporters are not part of them. Residues count along the entry.
UniProt P09848, 869-1927 limits assumed: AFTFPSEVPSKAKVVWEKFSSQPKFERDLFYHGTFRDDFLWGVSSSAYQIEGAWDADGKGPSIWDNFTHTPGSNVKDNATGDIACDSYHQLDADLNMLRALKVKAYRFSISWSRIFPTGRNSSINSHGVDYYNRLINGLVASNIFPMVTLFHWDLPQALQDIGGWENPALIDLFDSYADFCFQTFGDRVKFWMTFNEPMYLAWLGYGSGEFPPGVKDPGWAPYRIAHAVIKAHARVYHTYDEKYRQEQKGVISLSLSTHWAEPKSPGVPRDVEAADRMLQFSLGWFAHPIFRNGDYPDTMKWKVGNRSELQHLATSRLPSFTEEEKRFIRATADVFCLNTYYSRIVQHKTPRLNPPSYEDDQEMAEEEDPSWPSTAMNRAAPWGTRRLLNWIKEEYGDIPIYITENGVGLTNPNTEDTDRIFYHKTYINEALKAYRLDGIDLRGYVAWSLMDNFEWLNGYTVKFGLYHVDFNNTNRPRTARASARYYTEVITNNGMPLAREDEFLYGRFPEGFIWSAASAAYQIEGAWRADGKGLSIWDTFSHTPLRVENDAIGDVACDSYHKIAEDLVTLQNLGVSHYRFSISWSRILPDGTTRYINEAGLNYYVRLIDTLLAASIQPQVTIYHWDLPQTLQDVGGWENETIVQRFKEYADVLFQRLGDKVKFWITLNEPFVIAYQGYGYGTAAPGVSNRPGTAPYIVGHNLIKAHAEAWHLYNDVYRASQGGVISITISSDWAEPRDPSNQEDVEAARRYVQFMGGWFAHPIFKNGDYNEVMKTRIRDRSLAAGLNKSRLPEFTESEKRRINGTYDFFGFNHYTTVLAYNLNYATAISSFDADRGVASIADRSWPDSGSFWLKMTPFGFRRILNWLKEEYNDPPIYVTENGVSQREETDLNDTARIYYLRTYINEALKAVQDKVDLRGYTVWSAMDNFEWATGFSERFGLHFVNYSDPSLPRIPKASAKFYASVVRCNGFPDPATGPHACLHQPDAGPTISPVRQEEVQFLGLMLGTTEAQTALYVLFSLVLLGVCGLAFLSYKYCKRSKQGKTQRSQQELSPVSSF

Structure (SMILES)	IC50
OC[C@H]1NC[C@H](O)[C@@H](O)[C@H]1O	50 µM
OC[C@@H]1NC[C@H](O)[C@@H](O)[C@@H]1O	> 1000 µM
OC[C@H]1NC[C@H](O)[C@@H](O)[C@@H]1O [DUVOGLUSTAT]	62 µM

From ChEMBL document CHEMBL1154826, “Dual-action lipophilic iminosugar improves glycemic control in obese rodents by reduction of visceral glycosphingolipids and buffering of carbohydrate assimilation” (J Med Chem, 2010)
